# Results from PubChem BioAssay AID1458 (National Center for Advancing Translational Sciences (NCATS), 2008).
# The list shows a part of the results, in another mix than the full data. Results filed as inconclusive are left out. Calls of active or inactive are those of the source. Calls come from the whole dose curve; as a rule, active = well fitted activation curve with a large enough effect; inconclusive = small, poorly fitted or top-dose-only effect; inactive = no such curve, though single readings can be large or run the other way.
# Assay: qHTS Assay for Enhancers of SMN2 Splice Variant Expression; note: % of control where 0% means no effect; nearly all actives have a fitted effect of over 55% in size
# Details: HEK293 SMN2-luciferase splicing reporter, luminescence, 30-36 h; at 46.1 µM (top of the series) unless noted
row,SMILES,"activity change, positive = activation"
1,O=P1(Nc2nc3ccc(Cl)cc3s2)COc2ccccc2O1 (stereo unspecified),inactive: 40%
2,CC(C)(C)C(=O)NC(Sc1ccccc1)C(Cl)(Cl)Cl (stereo unspecified),inactive: -10.6%
3,CC(=O)Nc1ccc(Oc2c([N+](=O)[O-])cc([N+](=O)[O-])cc2[N+](=O)[O-])cc1,inactive: 17.5%
4,CCOC(=O)NC(Sc1ccccc1)C(Cl)(Cl)Cl (stereo unspecified),inactive: -1.38%
5,O=C(NC1CCS(=O)(=O)C1)NP(=S)(Oc1ccccc1)Oc1ccccc1 (stereo unspecified),inactive: 12.4%
6,CCNC(=S)/N=C(\N)N[N+](=O)[O-],inactive: -2.59%
7,CCC(=O)N1C2C3N(C(=O)CC)C1C1N(C(=O)CC)C(C(N1C(=O)CC)N3C(=O)CC)N2C(=O)CC,inactive: 24.2%
8,CN(C(=O)Cc1ccc(Cl)c(Cl)c1)[C@@H]1CCCC[C@@H]1N1CCCC1,inactive: -12.1%
9,CC(=O)NC(SC(=S)N(CC(C)C)CC(C)C)C(Cl)(Cl)Cl (stereo unspecified),inactive: -27.5%
10,Cc1ccc(OP(=O)(Nc2ccccn2)Oc2ccc(C)cc2)cc1,inactive: -22.4%
11,COC(=O)c1cc2c(s1)N=C(c1ccccc1)N(C)P2(=O)N1CCOCC1 (stereo unspecified),inactive: -9.46%
12,O=P(Nc1ccccn1)(c1ccc(Br)cc1)c1ccc(Br)cc1,inactive: -8.37%
13,CN(C(=O)Cc1ccccc1)[C@H]1CC[C@@]2(CCCO2)C[C@@H]1N1CCCC1,inactive: -3.52%
14,[N-]=[N+]=Nc1ccc([As](=O)(O)O)cc1,inactive: -8.49% [at 9.22 µM]
15,Cc1cc([N+](=O)[O-])cc([N+](=O)[O-])c1O,inactive: -13.9%
16,CC(=O)NC(SC(=S)N(C)C)C(Cl)(Cl)Cl (stereo unspecified),inactive: -3.02%
17,C(Cc1nn[nH]n1)Cc1nn[nH]n1,inactive: 1.11%
18,O=P(Nc1nccs1)(c1ccccc1)c1ccccc1,inactive: 9.85%
19,c1nnnn1CCn1cnnn1,inactive: 8.65%
20,CN1CCC[C@H](OC(=O)C(c2ccccc2)c2ccccc2)C1,inactive: -7.05% [at 9.22 µM]
21,C[C@@H](O)COc1ccc([As](=O)(O)O)cc1N,inactive: -6.2% [at 9.22 µM]
22,COc1ccc(C2=NCC(CBr)S2)cc1 (stereo unspecified),inactive: 13.9%
23,O=[N+]([O-])c1cc([N+](=O)[O-])c(CCNc2ccccc2)c([N+](=O)[O-])c1,inactive: -22.9%
24,Cc1ccc(NP(=O)(Oc2ccccc2)Oc2ccccc2)nc1,inactive: 5.51%
25,CC(=O)N1C2C3N(C(C)=O)C1C1N(C(C)=O)C(C(N1C(C)=O)N3C(C)=O)N2C(C)=O,inactive: 12.6%
26,O=[N+]([O-])c1cccc2n[nH]nc12,inactive: -5.58%
